# Data published in article PMC10291551, “Characterization of a Potent and Orally Bioavailable Lys-Covalent Inhibitor of Apoptosis Protein (IAP) Antagonist” (Journal of Medicinal Chemistry, 2023).
# Molecular target: T1, cIAP1-BIR3 (Homo sapiens, UniProt Q13490)
# T1 construct: from the BIR3 domains of XIAP, cIAP1, and cIAP2
# Assay: DELFIA displacement assay (biotinylated AVPI peptide)
# Type: binding
compound,measurement,setting,value
"CN[C@@H](C)C(=O)N[C@H](C(=O)N1CCC[C@H]1C(=O)N[C@@H]1CCc2c(OS(=O)(=O)F)cccc21)C1CCCCC1 [142D6, (R)-1-((S)-1-((S)-2-cyclohexyl-2-((S)-2-(methylamino)propanamido)acetyl)pyrrolidine-2-carboxamido)-2,3-dihydro-1H-inden-4-yl sulfurofluoridate]",IC50,after 6 h preincubation (bottom values),14 nM
same,IC50,without preincubation (top values),21 ± 4 nM
